# Assay results as given in patent US9259420B2, “Tetrandrine pharmaceutical formulations” (CBA Pharma, Inc., priority 2012, dated 2016).
# Experiment: bioequivalence study in rats: d-tetrandrine plasma concentration after oral gavage of free base versus hydrochloride salt (HPLC)
# Format: in vivo, Sprague-Dawley rats
# Method: A bioequivalence study in rats was conducted to compare the rate and extent to which the active drug ingredient (d-tetrandrine) is absorbed from a free base versus a hydrochloride salt. The drug ingredients were formulated in capsules by the University of Kentucky Center for Pharmaceutical Sciences and Technology (CPST) to administer equivalent amounts of d-tetrandrine to rats via oral gavage. Dosing syringes, capsule filling apparatus and mini capsules (size 9) appropriate for dosing rats were obtained from Torpac (Fairfield, N.J.).
# A single rat per time point (destructive sampling) was used to obtain as much blood volume as possible for the HPLC analysis. This was necessary to accommodate analysis with the current UV based HPLC assay that had extensively been used at CBA Pharma. The JPLC analyses were performed at the CBA Pharma facilities, by a scientist with extensive experience in plasma based assay. Results were provided to a second scientist for evaluation and modeling.
# Given the limited information on rat d-tetrandrine pharmacokinetics (PK), the studies were conducted in stages. A preliminary study (pilot) to identify the dose required for adequate assay sensitivity was first conducted using approximately 25 mg/kg and approximately 120 mg/kg doses administered in capsules. […]
# In some cases the plasma concentrations could not be determined due to extremely high interfering peaks. […]
substance,measurement,setting,value
d-tetrandrine-2HCl,"AUC estimates (Bailer method), acid versus base formulation","100 mg/kg, p>0.05, FIG. 6",no statistical or otherwise significant difference
same,"plasma concentrations and dose normalized plasma concentrations, comparison of d-tetrandrine and d-tetrandrine-2HCl formulations","higher dose (approximately 230 mg/kg capsules, 200 mg/kg liquid/suspension), Student t-test, two-tailed, p>0.05, FIG. 2",no statistical difference
